This assay has as its target human EGFR on HT-29 cells (human) (UniProt P00533). In words: cell-based or functional assay.

In turn, “BEAT EGFR/CD3 antibody (bispecific antibody)” yielded an EC50 of T cell redirected killing of HT-29 cells (RDL-MTS) of 0.0706 nM.

The values above are taken from patent US20180355064A1.
